Measured values taken from article PMC5345230 (2017).

B1: TWIST1 (wild type) [human] / RELA (wild type), NF-kB subunit p65 [not stated] (parent complex)
chain 1: MMQDVSSSPVSPADDSLSNSEEEPDRQQPPSGKRGGRKRRSSRRSAGGGAGPGGAAGGGVGGGDEPGSPAQGKRGKKSAGCGGGGGAGGGGGSSSGGGSPQSYEELQTQRVMANVRERQRTQSLNEAFAALRKIIPTLPSDKLSKIQTLKLAARYIDFLYQVLQSDELDSKMASCSYVAHERLSYAFSVWRMEGAWSMSASH
chain 2: MDELFPLIFPAEPAQASGPYVEIIEQPKQRGMRFRYKCEGRSAGSIPGERSTDTTKTHPTIKINGYTGPGTVRISLVTKDPPHRPHPHELVGKDCRDGFYEAELCPDRCIHSFQNLGIQCVKKRDLEQAISQRIQTNNNPFQVPIEEQRGDYDLNAVRLCFQVTVRDPSGRPLRLPPVLSHPIFDNRAPNTAELKICRVNRNSGSCLGGDEIFLLCDKVQKEDIEVYFTGPGWEARGSFSQADVHRQVAIVFRTPPYADPSLQAPVRVSMQLRRPSDRELSEPMEFQYLPDTDDRHRIEEKRKRTYETFKSIMKKSPFSGPTDPRPPPRRIAVPSRSSASVPKPAPQPYPFTSSLSTINYDEFPTMVFPSGQISQASALAPAPPQVLPQAPAPAPAPAMVSALAQAPAPVPVLAPGPPQAVAPPAPKPTQAGEGTLSEALLQLQFDDEDLGALLGNSTDPAVFTDLASVDNSEFQQLLNQGIPVAPHTTEPMLMEYPEAITRLVTGAQRPPDPAPAPLGAPGLPNGLLSGDEDFSSIADMDFSALLSQISS

Variants of: B1
Test: CoIP (RELA pulldown, western blot quantitation); transient expression in HEK293 cells; duplicate CoIP western blots; parent: 100; read off a plot

percent of parent [%] | Variant
~41 | chain 1 W190A
~52 | chain 1 E193A
~36 | chain 1 R191A
